System: recombinant HSV-1, Us3::Tn5-lacZ
Experiment: microbe, parasite or virus in culture
Type: cell-based, herpes simplex I virus (HSV-1)
Details: Vero cell monolayer, infection 20 hours, β-galactosidase readout
[1] = Human alphaherpesvirus 1, Vero, 20 h

Structure (SMILES): COc1ccc2sc3c(c2c1)N(Cc1ccc(C#N)cc1)CCN(C)C3=O [AA4, 4-(3-Methoxy-8-methyl-9-oxo-6,7,8,9-tetrahydro-10-thia-5,8-diaza-benzo[a]azulen-5-ylmethyl)-benzonitrile]
- EC50 [1]: 440 nM

Structure (SMILES): COc1ccc2sc3c(c2c1)NCCNC3=O [B, 3-Methoxy-5,6,7,8-tetrahydro-10-thia-5,8-diaza-benzo[a]azulen-9-one]
- EC50 [1]: 103 nM

Structure (SMILES): COc1cccc(CN2CCNC(=O)c3sc4ccc(OC)cc4c32)c1 [C, 3-Methoxy-5-(3-methoxy-benzyl)-5,6,7,8-tetrahydro-10-thia-5,8-diaza-benzo[a]azulen-9-one]
- EC50 [1]: 0.2 nM

Structure (SMILES): C=C(C)CN1CCNC(=O)c2sc3ccc(F)cc3c21 [CC5, 3-Fluoro-5-(2-methyl-allyl)-5,6,7,8-tetrahydro-10-thia-5,8-diaza-benz[a]azulen-9-one]
- EC50 [1]: 80 nM

Structure (SMILES): CCCN1CCNC(=O)c2sc3ccc(OCC)cc3c21 [D, 3-Ethoxy-5-propyl-5,6,7,8-tetrahydro-10-thia-5,8-diaza-benzo[a]azulen-9-one]
- EC50 [1]: 80 nM

Structure (SMILES): CCCCN1CCNC(=O)c2sc3ccc([N+](=O)[O-])cc3c21 [DD, 5-n-Butyl-3-nitro-5,6,7,8-tetrahydro-10-thia-5,8-diaza-benz[a]azulen-9-one]
- EC50 [1]: 50 nM

Structure (SMILES): COc1cccc(CN2CC(C)NC(=O)c3sc4ccc(OC)cc4c32)c1 (stereo not drawn) [EE2, 3-Methoxy-5-(3-methoxy-benzyl)-7-methyl-5,6,7,8-tetrahydro-10-thia-5,8-diaza-benzo[a]azulen-9-one]
- EC50 [1]: 29 nM

Structure (SMILES): O=C1NCCNc2c1ccc1cnccc21 [F, 8,9,10,11-Tetrahydro-3,8,11-triaza-cyclohepta[a]naphthalen-7-one]
- EC50 [1]: 55 nM

Structure (SMILES): CN1CCNC(=O)c2ccc3cnccc3c21 [GG4, 11-Methyl-8,9,10,11-tetrahydro-3,8,11-triaza-cyclohepta[a]naphthalen-7-one]
- EC50 [1]: 350 nM

Structure (SMILES): COc1ccc(CN2CC(C)(C)NC(=O)c3sc4ccc(OC)cc4c32)cc1 [K, 3-Methoxy-5-(4-methoxy-benzyl)-7,7-dimethyl-5,6,7,8-tetrahydro-10-thia-5,8-diaza-benzo[a]azulen-9-one]
- EC50 [1]: 150 nM

Structure (SMILES): C=C(Cl)CN1CCNC(=O)c2sc3ccc(OC)cc3c21 [MM3, 5-(2-Chloro-allyl)-3-methoxy-5,6,7,8-tetrahydro-10-thia-5,8-diaza-benzo[a]azulen-9-one]
- EC50 [1]: 2 nM

Structure (SMILES): COc1cccc(CN2CC(C)NC(=O)c3sc4ccc(OC)cc4c32)c1 (stereo not drawn) [O, 3-Methoxy-5-(3-methoxy-benzyl)-7-methyl-5,6,7,8-tetrahydro-10-thia-5,8-diaza-benzo[a]azulen-9-one]
- EC50: 15 nM

Structure (SMILES): COc1ccc2sc3c(c2c1)NC(Cc1ccccc1)CNC3=O (stereo not drawn) [PP2, 6-Benzyl-3-methoxy-5,6,7,8-tetrahydro-10-thia-5,8-diaza-benzo[a]azulen-9-one]
- EC50 [1]: 10 nM

Structure (SMILES): C=C(C)CN1CCNC(=O)c2sc3ccc([N+](=O)[O-])cc3c21 [Q, 5-(2-Methyl-allyl)-3-nitro-5,6,7,8-tetrahydro-10-thia-5,8-diaza-benz[a]azulen-9-one]
- EC50 [1]: 80 nM

Structure (SMILES): CC(C)CN1CCNC(=O)c2sc3ccc(S(C)(=O)=O)cc3c21 [RR2, 5-Isobutyl-3-methanesulfonyl-5,6,7,8-tetrahydro-10-thia-5,8-diaza-benz[a]azulen-9-one]
- EC50 [1]: 520 nM

Structure (SMILES): COc1ccc2sc3c(c2c1)N(Cc1ccc([N+](=O)[O-])cc1)CCNC3=O [SS3, 3-Methoxy-5-(4-nitro-benzyl)-5,6,7,8-tetrahydro-10-thia-5,8-diaza-benzo[a]azulen-9-one]
- EC50 [1]: 210 nM

Structure (SMILES): CCCN1CC(C)(C)NC(=O)c2sc3ccc(OC)cc3c21 [TT, 3-Methoxy-7,7-dimethyl-5-propyl-5,6,7,8-tetrahydro-10-thia-5,8-diaza-benzo[a]azulen-9-one]
- EC50 [1]: 2 nM

Structure (SMILES): C=CCN1CCNC(=O)c2sc3ccc([N+](=O)[O-])cc3c21 [U, 5-Allyl-3-nitro-5,6,7,8-tetrahydro-10-thia-5,8-diaza-benz[a]azulen-9-one]
- EC50 [1]: < 100 nM

Structure (SMILES): COc1cccc(CN2CCNC(=O)c3sc4ccc([N+](=O)[O-])cc4c32)c1 [V, 5-(3-Methoxy-benzyl)-3-nitro-5,6,7,8-tetrahydro-10-thia-5,8-diaza-benz[a]azulen-9-one]
- EC50 [1]: 100 nM

Structure (SMILES): COc1ccc2sc3c(c2c1)N(Cc1ccccc1C)CCNC3=O [WW3, 3-Methoxy-5-(2-methyl-benzyl)-5,6,7,8-tetrahydro-10-thia-5,8-diaza-benzo[a]azulen-9-one]
- EC50 [1]: 32 nM

Structure (SMILES): COc1ccc2oc3c(c2c1)N(CCC(C)C)CCNC3=O [YY5, 3-Methoxy-5-(3-methyl-butyl)-5,6,7,8-tetrahydro-10-oxa-5,8-diaza-benzo[a]azulen-9-one]
- EC50 [1]: 30 nM
